Measurements taken from patent publication US20250017942A1, “Prevention and treatment of osteoarticular diseases by inhibiting acetylcholinesterase” (priority 2021, published 2025).
Counter-ions that a name gives are not always drawn.

Protein sequences, listed by entry. Tags and fused reporters are not part of them. Residues count along the entry.
UniProt Q9JKC1, 24-597 limits assumed: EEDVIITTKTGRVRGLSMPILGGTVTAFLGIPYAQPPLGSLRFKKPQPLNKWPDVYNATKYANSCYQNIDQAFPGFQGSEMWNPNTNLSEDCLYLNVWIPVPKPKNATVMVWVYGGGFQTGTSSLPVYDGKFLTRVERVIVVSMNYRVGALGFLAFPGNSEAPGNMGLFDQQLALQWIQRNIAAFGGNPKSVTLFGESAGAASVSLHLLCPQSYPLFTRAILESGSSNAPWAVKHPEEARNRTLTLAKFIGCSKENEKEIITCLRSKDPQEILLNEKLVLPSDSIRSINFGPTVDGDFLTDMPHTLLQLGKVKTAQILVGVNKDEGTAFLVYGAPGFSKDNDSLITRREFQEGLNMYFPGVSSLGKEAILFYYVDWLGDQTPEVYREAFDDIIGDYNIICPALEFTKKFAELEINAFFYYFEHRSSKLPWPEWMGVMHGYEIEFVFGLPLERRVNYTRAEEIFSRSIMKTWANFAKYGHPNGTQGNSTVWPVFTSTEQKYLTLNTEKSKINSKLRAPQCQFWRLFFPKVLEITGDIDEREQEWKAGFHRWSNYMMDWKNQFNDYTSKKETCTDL
UniProt P37136, 32-614 limits assumed: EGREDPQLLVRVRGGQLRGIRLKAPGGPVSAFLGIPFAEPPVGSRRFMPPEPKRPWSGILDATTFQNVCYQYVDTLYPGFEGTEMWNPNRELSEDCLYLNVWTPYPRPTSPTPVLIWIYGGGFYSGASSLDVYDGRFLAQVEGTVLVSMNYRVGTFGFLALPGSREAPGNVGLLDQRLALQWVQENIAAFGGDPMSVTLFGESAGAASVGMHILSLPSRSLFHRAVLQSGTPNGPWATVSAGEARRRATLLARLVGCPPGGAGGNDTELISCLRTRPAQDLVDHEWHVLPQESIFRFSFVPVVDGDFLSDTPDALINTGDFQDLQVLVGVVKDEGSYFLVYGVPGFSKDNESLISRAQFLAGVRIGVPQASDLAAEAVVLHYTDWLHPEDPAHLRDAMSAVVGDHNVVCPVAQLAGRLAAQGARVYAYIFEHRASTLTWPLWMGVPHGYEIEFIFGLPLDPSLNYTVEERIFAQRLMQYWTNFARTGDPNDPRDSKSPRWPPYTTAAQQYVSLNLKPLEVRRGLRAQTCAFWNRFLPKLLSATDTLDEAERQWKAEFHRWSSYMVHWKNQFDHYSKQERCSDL

Assays:
ATDC5 cells = assay: IL-1β-stimulated ATDC5 cells, marker expression by qPCR; type: cell-based, mouse
RAW 264.7 cells = assay: RANKL-induced osteoclastogenesis of RAW 264.7 cells; type: cell-based, mouse; details: for Osteoclastogenesis: RAW 264.7, RANKL 15 ng/ml 3 days, 0.1, 0.5 and 1 μM (FIG. 9); for Osteoclastogenic differentiation of RAW 264.7 cells: all at 1 μM (FIG. 10 A-H); for mRNA expression of MMP9, RANK, TRAP (osteoclast markers) compared with alendronate: all at 1 μM, qPCR (FIG. 10 I)
[1] = tested on: murine mesenchymal stem cells (mMSCs); assay: Mineralization of murine mesenchymal stem cells, Alizarin Red S staining; details: mMSCs, 0.1, 0.5, 1 μM (FIG. 12)
[2] = Toxicity and therapeutic index compared with tacrine
BuChE = BuChE (Rattus norvegicus, UniProt Q9JKC1); assay: In vitro BuChE inhibition by tacrine and bis(n)-tacrine analogs (Table 1); details: read-out: BuChE IC50
Balb/C female mice = assay: OVX (ovariectomy)-induced bone loss in Balb/C mice, micro-CT; details: abdominal injection 0.2 or 2 mg/kg body weight/day for 4 weeks, starting 4 weeks after OVX (FIG. 8)
[3] = tested on: spontaneously hypertensive rats (SHR); assay: DAB staining for acetylcholinesterase in joint sections of SHR rats (osteoarthritis model); details: osteoarthritic SHR rats, abdominal injection 2 mg/kg body weight/day for one month
AChE = AChE (Rattus norvegicus, UniProt P37136); assay: AChE inhibition by huperzine A-tacrine hybrids and HA fragment monomers

## O=c1ccc2c([nH]1)CCCC2NCCCCCCCCCCNc1c2c(nc3ccccc13)CCCC2 (centres unmarked)
ATDC5 cells; ATDC5 cells, 10 ng/ml IL-1β, 24 h, qPCR (FIG. 3A)
  Pro-inflammatory cytokine expression after IL-1β stimulation: down-regulating key pro-inflammatory cytokines including TNF-alpha
RAW 264.7 cells
  Osteoclastogenesis: suppressed osteoclastogenesis in a dose-dependent manner
[1]
  Bone mineralization (Alizarin Red S staining): promoted bone mineralization, with their promotion strength positively correlated with drug concentration

## c1ccc2c(NCCCCCCCNc3c4c(nc5ccccc35)CCCC4)c3c(nc2c1)CCCC3
RAW 264.7 cells
  Osteoclastogenesis: suppressed osteoclastogenesis in a dose-dependent manner
[2]
  Toxicity compared with tacrine: less toxic than tacrine

## c1ccc2c(NCCCCCCCCCNc3c4c(nc5ccccc35)CCCC4)c3c(nc2c1)CCCC3
BuChE
  IC50: 0.19 µM

## c1ccc2c(NCCCNc3c4c(nc5ccccc35)CCCC4)c3c(nc2c1)CCCC3
RAW 264.7 cells
  Osteoclastogenesis: suppressed osteoclastogenesis in a dose-dependent manner
  Osteoclastogenic differentiation of RAW 264.7 cells: particularly pronounced
  mRNA expression of MMP9, RANK, TRAP (osteoclast markers) compared with alendronate: comparable and superior to alendronate
[1]
  Bone mineralization (Alizarin Red S staining): promotive effects of donepezil and bis(3)-tacrine (B3C) were observed at the concentration of 1 μM

## COc1cc2c(cc1OC)C(=O)C(CC1CCN(Cc3ccccc3)CC1)C2 (centres unmarked)
ATDC5 cells; ATDC5 cells (FIG. 3C)
  p16 expression (senescence marker) after IL-1β stimulation: decreased
ATDC5 cells; ATDC5 cells, 10 ng/ml IL-1β, 24 h, qPCR (FIG. 3B)
  Anabolic (Agg, Sox9, Col2a1) and catabolic (MMP13) factors after IL-1β stimulation: increased the anabolic and decreased the catabolic factors
RAW 264.7 cells; RAW 264.7, 15 ng/ml RANKL, donepezil 1 μM pre- or post-treatment for 2 days (FIG. 7)
  Cell-cell fusion of osteoclast precursors: inhibited cell-cell fusion of osteoclast precursors
RAW 264.7 cells
  Osteoclastogenesis: suppressed osteoclastogenesis in a dose-dependent manner
  Osteoclastogenic differentiation of RAW 264.7 cells: significantly suppressed
  mRNA expression of MMP9, RANK, TRAP (osteoclast markers) compared with alendronate: comparable and superior to alendronate
Balb/C female mice
  OVX-induced bone loss (micro-CT of tibia primary spongiosa and lumbar vertebral body): dose-dependent osteoprotection, rescuing OVX (ovariectomy)-induced bone loss
[1]
  Bone mineralization (Alizarin Red S staining): promotive effects of donepezil and bis(3)-tacrine (B3C) were observed at the concentration of 1 μM
[3]
  Acetylcholinesterase expression in joint sections (DAB staining): a decrease in acetylcholinesterase expression could be observed

## CC1=CC2Cc3nc4cccc(F)c4c(N)c3C(C1)C2 (centres unmarked)
AChE
  Potency for AChE relative to HA: 21 fold

## O=c1ccc2c([nH]1)CCC[C@@H]2NCCCCCCCCCCCCN[C@H]1CCCc2[nH]c(=O)ccc21 [E12E, (S,S)-(−)-N, N′-di-5′-(5′, 6′7′,8′-tetrahydroquinolin-2-onyl)-1,12-diaminododecane, bis-hydrochloride]
[1]
  Bone mineralization (Alizarin Red S staining): promoted bone mineralization, with their promotion strength positively correlated with drug concentration

## COc1ccc2c3c1OC1CC(O)C=CC31CCN(C)C2 (centres unmarked)
RAW 264.7 cells
  Osteoclastogenesis: donepezil and four dimers, rather galantamine, suppressed osteoclastogenesis
  Osteoclastogenic differentiation of RAW 264.7 cells: did not
